In ChEMBL document CHEMBL5131428, “Discovery of potent antiproliferative agents from selected oxygen heterocycles as EGFR tyrosine kinase inhibitors from the U.S. National Cancer Institute database by in silico screening and bioactivity evaluation” (Bioorg Med Chem Lett, 2022):

Molecular target: Epidermal growth factor receptor (Homo sapiens, UniProt P00533)
Assay: Potency index, ratio of Erlotinib IC50 to test compound IC50 for inhibition of EGFR tyrosine kinase (unknown origin)

## COc1ccc(-c2cc(=O)cc(-c3ccc(OC)cc3)o2)cc1
  Ratio IC50: > 10
